Test results reported in PubChem BioAssay AID588342 (National Center for Advancing Translational Sciences (NCATS), 2011).
What follows is the remainder of the data, with few or none of the hits. Inconclusive results are not listed. The source made the active and inactive calls. Calls follow the shape of the dose curve; as a rule, active = well fitted inhibition curve with a large enough effect; inconclusive = small, poorly fitted or top-dose-only effect; inactive = flat fitted curve, though single readings scatter.

The chains behind the UniProt entries cited, without tags or fusion partners.
UniProt P08659, whole entry, looked up: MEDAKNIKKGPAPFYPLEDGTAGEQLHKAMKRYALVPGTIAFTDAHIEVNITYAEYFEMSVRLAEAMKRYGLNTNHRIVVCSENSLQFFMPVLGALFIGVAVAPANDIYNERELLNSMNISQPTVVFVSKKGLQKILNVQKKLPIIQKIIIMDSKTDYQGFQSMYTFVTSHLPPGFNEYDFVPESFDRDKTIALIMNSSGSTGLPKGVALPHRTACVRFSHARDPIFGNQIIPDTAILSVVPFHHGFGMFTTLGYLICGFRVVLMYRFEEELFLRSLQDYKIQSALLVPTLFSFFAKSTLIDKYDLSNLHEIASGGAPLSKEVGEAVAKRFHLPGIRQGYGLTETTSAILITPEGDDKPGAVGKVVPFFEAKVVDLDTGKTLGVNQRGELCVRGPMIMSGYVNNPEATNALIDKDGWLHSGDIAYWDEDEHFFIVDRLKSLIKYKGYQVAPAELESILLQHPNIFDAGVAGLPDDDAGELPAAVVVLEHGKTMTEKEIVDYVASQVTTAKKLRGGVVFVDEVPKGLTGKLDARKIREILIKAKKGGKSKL

molecular target: Luciferin 4-monooxygenase (Photinus pyralis) (UniProt P08659); experiment: qHTS profiling assay for firefly luciferase inhibitor/activator using purifed enzyme and Km concentrations of substrates (counterscreen for miR-21 project); settings: purified FLuc, luminescence inhibition; at 57.5 µM (top of the series);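 also: plate controls were vehicle for no effect and reference inhibitor for full effect; nearly all actives have a fitted effect of over 55% in size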
Excerpt: MLPCN Grant: 1 R21 NS059478-01 (miR-21 grant) Assay Provider: NCGC NCGC Assay Overview: Firefly (Photinus pyralis) luciferase is one of the most commonly used transcriptional reporters for a number of reasons. It is considered one of the more dynamically responsive reporters -that is, responsive to changes in reporter transcription - as it requires no post-translational modifications and is enzymatically active directly after protein synthesis (Wood, 1998). Additionally, the half-life of the luciferase protein is short relative to other reporter-gene products (Wood, 1995). […] Although light produced in a bioluminescence reaction is of lower intensity than that produced during fluorescence emission, this is offset by little to no background light inherent to luminescent assays. […] Accumulated intracellular FLuc protein can be measured as an increase in luminescence signal, upon addition of detection reagents (which contain high concentrations of FLuc substrates) commonly used in high-throughput screening. In cell-based reporter gene assays that use FLuc as the reporter gene to quantitate the potential influence of a given compound against the target biology, this apparent increase in luminescence can mistakenly be interpreted as identification of a compound that is active against the target of interest. […]

| Structure (SMILES) | activity change, negative = inhibition |
| --- | --- |
| COc1ccc2cc(C(C)C(=O)O)ccc2c1 (configuration not stated) | inactive: -12% |
| COc1ccc2cc([C@@H](C)C(=O)O)ccc2c1 | inactive: 0.0668% |
